Apparent affinities of Ab-14 variants for a coronavirus HR2 peptide

The measurements come from Li et al. 2023 (doi:10.1038/s41467-023-39022-2) through the FLAb antibody collection.

Antigen: PDVDLGDISGINAS, a 14-residue peptide of the SARS-CoV-2 spike HR2 region.

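The parent was found by panning a naive human phage display library on the peptide. Designed CDR sequences, proposed from the first random library and measured here. Several design methods are mixed in this list. The assay is AlphaSeq: two haploid yeast populations carry antibody and antigen on their surface. Binding brings cells together so that they mate, and sequencing counts the barcode pairs among the diploids. A regression on co-assayed BCL2-family reference pairs converts the normalised counts of each replicate to an apparent Kd. There are six technical replicates.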

Parent scFv Ab-14: VH joined to VL by the linker GGGGSGGGGSGGGGS. Changes lie in the light chain CDRs alone.
VH: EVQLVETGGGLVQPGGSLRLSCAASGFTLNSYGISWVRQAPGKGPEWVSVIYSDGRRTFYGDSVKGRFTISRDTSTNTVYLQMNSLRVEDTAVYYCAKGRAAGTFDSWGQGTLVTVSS
VL: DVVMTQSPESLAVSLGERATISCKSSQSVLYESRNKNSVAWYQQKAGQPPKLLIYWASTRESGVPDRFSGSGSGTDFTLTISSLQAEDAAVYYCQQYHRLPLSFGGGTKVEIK

The whole VL of each variant is written out. The read-out is the apparent dissociation constant on a log10 scale (nM): the lower, the stronger. Averages over replicates are reported, and they cover detected replicates only. Where no diploid with the target was found in any replicate, the entry reads "not detected": below detection, most likely a poor binder, though not proof of it. Background: pairings of all light chain designs with three empty control strains gave a value in 4% of cases (median 2.64, 5th percentile 1.59). Values in that range, when seen in few replicates, are hard to tell from nonspecific mating.

VL	mean log10 Kd (nM)	seen in
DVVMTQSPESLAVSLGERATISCTLDNHQAGYYQKNNNIAWYQQKAGQPPKLLIYEMNMRRYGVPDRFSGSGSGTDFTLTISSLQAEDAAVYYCQQYGILPLSFGGGTKVEIK	1.43	6/6
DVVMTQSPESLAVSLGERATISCKISQMHRVGSTHSNSIAWYQQKAGQPPKLLIYEEATRSDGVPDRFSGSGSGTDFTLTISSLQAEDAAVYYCQQYHRLPLAFGGGTKVEIK	1.88	6/6
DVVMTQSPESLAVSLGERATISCKVSQSVLYESRTKNSVAWYQQKAGQPPKLLIYNGSTRESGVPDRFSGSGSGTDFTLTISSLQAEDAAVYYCQQMHRLPLSFGGGTKVEIK	not detected	0/6
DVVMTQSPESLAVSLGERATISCHLSQSVLYESRNKNSVAWYQQKAGQPPKLLIYNGSTRESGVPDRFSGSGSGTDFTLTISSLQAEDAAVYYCQQYHRLPLSFGGGTKVEIK	-0.09	6/6
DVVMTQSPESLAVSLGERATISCKLSMSMLMESRVKNSVAWYQQKAGQPPKLLIYENSTREEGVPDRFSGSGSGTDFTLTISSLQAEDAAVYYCQHYHRLPLSFGGGTKVEIK	2.18	5/6
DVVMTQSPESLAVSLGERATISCTISQSAQQEMHNKNSVAWYQQKAGQPPKLLIYDLSVRGSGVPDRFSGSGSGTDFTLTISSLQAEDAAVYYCQQYHRLPLSFGGGTKVEIK	0.46	6/6
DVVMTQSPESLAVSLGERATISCMVSQLMLWGLHAKNSIAWYQQKAGQPPKLLIYEAVMRLNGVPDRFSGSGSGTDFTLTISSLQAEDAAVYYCQQYDRLPLIFGGGTKVEIK	not detected	0/6
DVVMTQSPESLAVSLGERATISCKSSQSVLYEERNENSVAWYQQKAGQPPKLLIYWASTRESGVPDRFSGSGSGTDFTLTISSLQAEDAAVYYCQAYHRLPLSFGGGTKVEIK	2.34	2/6
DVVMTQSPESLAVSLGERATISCKLMGNKVHGATRQYNIAWYQQKAGQPPKLLIYETTLVGQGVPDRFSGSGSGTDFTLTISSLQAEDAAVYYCQQYFHLPFIFGGGTKVEIK	2.51	2/6
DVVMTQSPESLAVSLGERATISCKFNISKEGVTRYGKSIAWYQQKAGQPPKLLIYGAQTIDEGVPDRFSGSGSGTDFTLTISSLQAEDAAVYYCQQYDRLPLAFGGGTKVEIK	1.46	6/6
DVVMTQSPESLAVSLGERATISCMMSQVTGLGQRHRNNVAWYQQKAGQPPKLLIYQTSMREPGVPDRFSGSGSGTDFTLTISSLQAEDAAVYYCQQYDRLPLIFGGGTKVEIK	0.93	6/6
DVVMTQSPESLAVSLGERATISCKSSQSALYESRNKNSVAWYQQKAGQPPKLLIYWASTRESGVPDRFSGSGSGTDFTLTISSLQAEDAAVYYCQQYHRLPLSFGGGTKVEIK	2.04	3/6
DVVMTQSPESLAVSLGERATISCKSSQSVLYESRNKNSVAWYQQKAGQPPKLLIYWASTRETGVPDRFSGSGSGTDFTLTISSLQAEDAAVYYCCQYHRLPLSFGGGTKVEIK	not detected	0/6
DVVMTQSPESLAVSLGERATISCKLLQSVQYGMRALNSVAWYQQKAGQPPKLLIYQMETREDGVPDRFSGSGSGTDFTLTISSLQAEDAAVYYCQQYHRLPLSFGGGTKVEIK	1.17	6/6
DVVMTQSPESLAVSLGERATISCKLRMSTLYESRNKNSVAWYQQKAGQPPKLLIYTASTRESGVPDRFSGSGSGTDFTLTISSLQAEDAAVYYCQQYHRLPLSFGGGTKVEIK	0.21	6/6
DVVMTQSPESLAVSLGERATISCMSSQSVLYQSRNKNSVAWYQQKAGQPPKLLIYWASTRESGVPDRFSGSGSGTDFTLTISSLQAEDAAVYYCQQYHHLPLSFGGGTKVEIK	not detected	0/6
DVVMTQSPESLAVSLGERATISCKLSWLSLHGDLRWSAVAWYQQKAGQPPKLLIYNEVVRLAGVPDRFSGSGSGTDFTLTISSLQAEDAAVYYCQQYFRLPIQFGGGTKVEIK	1.35	1/6
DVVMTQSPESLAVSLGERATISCKITATMRFEQKQSNNIAWYQQKAGQPPKLLIYEVSQRSKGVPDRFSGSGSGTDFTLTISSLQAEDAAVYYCQQYYRLPLAFGGGTKVEIK	0.80	6/6
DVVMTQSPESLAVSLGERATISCKYSQSVQTHSRNANNVAWYQQKAGQPPKLLIYWASTRESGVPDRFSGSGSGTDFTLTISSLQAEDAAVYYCQQYHRLPLSFGGGTKVEIK	1.44	6/6
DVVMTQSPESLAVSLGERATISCKVSQSVLYESDNKNSVAWYQQKAGQPPKLLIYWASTRESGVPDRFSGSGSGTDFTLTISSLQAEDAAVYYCQQYHRLHLSFGGGTKVEIK	1.01	6/6
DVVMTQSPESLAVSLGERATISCHISIKLPGNWKMMDSVAWYQQKAGQPPKLLIYHSALRAEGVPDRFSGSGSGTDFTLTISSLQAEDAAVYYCQQYDRLPLMFGGGTKVEIK	0.53	6/6
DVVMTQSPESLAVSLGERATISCKSSQSVTYECRNKNSVAWYQQKAGQPPKLLIYWASTRESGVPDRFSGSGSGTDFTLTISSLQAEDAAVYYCQQYHRLPLSFGGGTKVEIK	2.60	1/6
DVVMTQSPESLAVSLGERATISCIAVQSVLYESRNKNSVAWYQQKAGQPPKLLIYGASTRESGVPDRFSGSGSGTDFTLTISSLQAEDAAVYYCQQYHRLPLIFGGGTKVEIK	1.22	6/6
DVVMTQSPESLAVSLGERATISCTISQMTSLFSQSINSVAWYQQKAGQPPKLLIYEVSMREEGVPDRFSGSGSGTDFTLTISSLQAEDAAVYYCQQYDRLPLMFGGGTKVEIK	0.81	6/6
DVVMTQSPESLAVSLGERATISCKLEESELYESRNKNSVAWYQQKAGQPPKLLIYNASTRESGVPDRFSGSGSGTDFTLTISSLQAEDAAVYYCQQYHRLPLSFGGGTKVEIK	0.51	6/6

The 3 strongest on average among those seen in every replicate, once more:

VL	mean log10 Kd (nM)	seen in
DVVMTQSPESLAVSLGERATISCHLSQSVLYESRNKNSVAWYQQKAGQPPKLLIYNGSTRESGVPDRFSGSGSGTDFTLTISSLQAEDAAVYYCQQYHRLPLSFGGGTKVEIK	-0.09	6/6
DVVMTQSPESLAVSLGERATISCKLRMSTLYESRNKNSVAWYQQKAGQPPKLLIYTASTRESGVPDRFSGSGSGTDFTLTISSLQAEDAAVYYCQQYHRLPLSFGGGTKVEIK	0.21	6/6
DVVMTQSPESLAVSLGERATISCTISQSAQQEMHNKNSVAWYQQKAGQPPKLLIYDLSVRGSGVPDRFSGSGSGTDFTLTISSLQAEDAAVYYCQQYHRLPLSFGGGTKVEIK	0.46	6/6

The authors averaged sequences with at least three values out of six and counted those with two or fewer as poor binders. Values of this round are not directly comparable with the first-round values of the same sequences.